Measured affinities in a library of Ab-14 light chain variants

Values reported by Engelhart et al. 2022, doi:10.1038/s41597-022-01779-4 (FLAb copy).

The target is the same throughout: PDVDLGDISGINAS, from the HR2 region of SARS-CoV-2 spike.

Parent: Ab-14, a human scFv built as VH, a (GGGGS)3 linker, VL. Only the CDRs of the light chain vary.
VH: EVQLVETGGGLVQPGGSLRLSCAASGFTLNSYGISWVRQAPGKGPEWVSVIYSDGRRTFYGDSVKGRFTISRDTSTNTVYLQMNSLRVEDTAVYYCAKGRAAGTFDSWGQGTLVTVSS
VL: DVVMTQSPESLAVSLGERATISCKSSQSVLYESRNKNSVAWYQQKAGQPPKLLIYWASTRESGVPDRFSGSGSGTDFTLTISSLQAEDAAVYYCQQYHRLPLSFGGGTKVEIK

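The starting antibody came from a phage panning campaign against this peptide. The library (AAYL50) carries one to three amino acid substitutions per variant, with no insertions or deletions. The scFvs were displayed on barcoded MATa yeast, the peptide on MATalpha yeast. Pairs that bind mate more often; barcode pairs of the diploids are counted by sequencing. The ratio of observed to expected reads was calibrated, replicate by replicate, on BCL2-family standards whose Kd was known from biolayer interferometry. Each pool was mated in three replicate cultures.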

Changes read parent residue, position, new residue, counted from the first residue of the VL shown. This list gathers variants with a substitution at S33 (VL, numbered from residue 1). Values are log10 of the apparent Kd in nM; lower means stronger binding. A mean of the replicates is given; it leaves out those without a signal. An entry "nd" has no value in the source: the pair was not observed among the diploids in any replicate. This suggests poor binding but is not conclusive. For reference, the parent read 0.65 as the reference entry and 1.68 as a member of this library. Three control strains display no target. For library AAYL50, 18% of the pairings with them gave a signal, with a median of 4.19 and one signal in twenty below 2.99, so weak values seen in few replicates may be background. For each scFv, signals with the empty controls are counted beside the result.

The variant S33P/R34W/L100N showed 5.59 (1 of 3 replicates; controls 1 of 9). For S33I/N35E/L100R, the assay gave nd (0 of 3 replicates; controls 3 of 9). The variant V29F/S33I/Y97P gave nd (0 of 3 replicates; controls 0 of 9). The variant S28L/S33H/Q96Y showed 3.13 (1 of 3 replicates; controls 0 of 9). With V29H/S33R/N37R the result was nd (0 of 3 replicates; controls 2 of 9).

The variant S33R/A40C/Q95D gave nd (0 of 3 replicates; controls 1 of 9). For Q27R/S33N/S58P, the assay gave 3.22 (1 of 3 replicates; controls 2 of 9). With V29Q/S33R/R34N the result was 1.55 (3 of 3 replicates; controls 6 of 9). The variant S33W/R34G/S38I gave 4.56 (3 of 3 replicates; controls 3 of 9). With Y31D/S33N the result was 0.44 (3 of 3 replicates; controls 3 of 9).

The variant S33N/N37F/S103R gave 2.91 (3 of 3 replicates; controls 4 of 9). With S33V/S62A/P101Y the result was nd (0 of 3 replicates; controls 0 of 9). For S25R/S28R/S33W, the assay gave 0.51 (3 of 3 replicates; controls 3 of 9). With Y31N/S33P/W56V the result was 1.84 (3 of 3 replicates; controls 1 of 9). The variant S33C/K36V/E61S showed 2.02 (1 of 3 replicates; controls 0 of 9).

With V29I/L30Y/S33E the result was 1.15 (3 of 3 replicates; controls 2 of 9). For S33N/S38N/T59G, the assay gave 3.77 (2 of 3 replicates; controls 1 of 9). The variant S33D/K36M/S103D showed 1.76 (2 of 3 replicates; controls 0 of 9). The variant S33A/V39L/E61P showed nd (0 of 3 replicates; controls 0 of 9). For S28A/L30Q/S33D, the assay gave 1.12 (3 of 3 replicates; controls 5 of 9).

The variant S33I/S58F/L100C showed 4.73 (1 of 3 replicates; controls 2 of 9). The variant S33V/K36P/E61K gave nd (0 of 3 replicates; controls 2 of 9). The variant E32L/S33H/S62V showed 2.57 (3 of 3 replicates; controls 4 of 9). For S33E/N37Q/A57C, the assay gave nd (0 of 3 replicates; controls 0 of 9). The variant S33W/S62K/P101D gave nd (0 of 3 replicates; controls 1 of 9).

With S33N/Q95L/H98C the result was 3.72 (1 of 3 replicates; controls 1 of 9). The variant S33I/V39P/R60F gave nd (0 of 3 replicates; controls 1 of 9). The variant S26L/S33H/K36I gave 2.23 (3 of 3 replicates; controls 2 of 9). For S28P/S33T/V39F, the assay gave nd (0 of 3 replicates; controls 1 of 9). For S33Q/R34T, the assay gave 3.85 (2 of 3 replicates; controls 2 of 9).

The variant S33F/T59W/R99D gave 1.88 (1 of 3 replicates; controls 0 of 9). The variant S33M/K36S/P101K gave 0.97 (3 of 3 replicates; controls 3 of 9). With S33G/A57C/S103D the result was 2.39 (3 of 3 replicates; controls 7 of 9). With S33V/S62H the result was 3.07 (2 of 3 replicates; controls 0 of 9).

Extract of 3 entries:

With S25R/S28R/S33W the result was 0.51 (3 of 3 replicates; controls 3 of 9).
With Y31N/S33P/W56V the result was 1.84 (3 of 3 replicates; controls 1 of 9).
With S33W/R34G/S38I the result was 4.56 (3 of 3 replicates; controls 3 of 9).